In PubChem BioAssay AID893 (National Center for Advancing Translational Sciences (NCATS), 2007) one finds activity change, negative = inhibition and Potency data, which are given here for 72 compounds.

The entries are a selection whose mix differs from that of the whole data set. Records with an inconclusive call do not appear. A call without a number means that no potency is given here. Active and inactive are the calls of the source. Calls come from the whole dose curve; as a rule, active = well fitted inhibition curve with a large enough effect; inconclusive = small, poorly fitted or top-dose-only effect; inactive = no such curve, though single readings can be large or run the other way.
Potency is the fitted concentration of half-maximal effect.

The experiment concerns the target 3-hydroxyacyl-CoA dehydrogenase type-2 (Homo sapiens) (UniProt Q99714). The experiment is described as follows: qHTS Assay for Inhibitors of HSD17B4, hydroxysteroid (17-beta) dehydrogenase 4.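 Note: the protocol describes HADH2 (HSD17B10) and not the HSD17B4 of the title; nearly all actives have a fitted effect of over 70% in size.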 The conditions noted are these: recombinant HSD17B10, NADH fluorescence kinetic; series mostly up to 57.1 µM. Background: In qHTS, concentration-response curves come from the screen itself.
As for `O=[As](O)(O)c1ccc([As](=O)(O)O)cc1`, the activity change, negative = inhibition was inactive: -2.56% [at 11.4 µM].

With `O=[N+]([O-])c1cccc([N+](=O)[O-])c1`, the activity change, negative = inhibition entry was “inactive”.

Consider `CCOP1(=S)c2c(C)nn(CCC#N)c2N=C(c2ccccc2F)N1C` (configuration not stated), for which the activity change, negative = inhibition result is “inactive”.

As to `CCOP1(=S)c2c(C)nn(CCC#N)c2N=C(c2ccc(F)cc2)N1C` (configuration not stated), the activity change, negative = inhibition entry was “inactive”.

Regarding `Cc1ccc([N+](=O)[O-])cc1[N+](=O)[O-]`, the activity change, negative = inhibition entry was “inactive”.

Take `NC(=O)Nc1ccc([As](=O)(O)O)cc1`: the activity change, negative = inhibition entry is “inactive”.

`CN(C(=O)Cc1ccc(Cl)c(Cl)c1)[C@@H]1CC[C@@]2(CCCO2)C[C@H]1N1CCCC1`: the activity change, negative = inhibition result was “inactive”.

In the case of `Cc1ccc(C)c(NP(C)(=O)Oc2ccccc2)c1` (configuration not stated), the activity change, negative = inhibition result was “inactive”.

Turning to `O=C(CC(=O)c1ccccc1)O[C@H]1CN2CCC1CC2`, the activity change, negative = inhibition was inactive: 9.28% [at 11.4 µM].

Take `NS(=O)(=O)Cc1ccc([As](=O)(O)O)cc1`: the activity change, negative = inhibition was inactive: 1.34% [at 11.4 µM].

Regarding `Clc1n[nH]nc1-c1nn[nH][15n]1`, the activity change, negative = inhibition result was “inactive”.

Turning to `CN(CCCl)Cc1cc(Cl)c(NC2=NCCN2)c(Cl)c1`, the activity change, negative = inhibition result is “inactive”.

`O=P1(Nc2ccccn2)COc2ccccc2OC1`: the activity change, negative = inhibition result was “inactive”.

As to `Cc1nc2ccc3ccccc3c2s1.O=[N+]([O-])c1cc([N+](=O)[O-])c(O)c([N+](=O)[O-])c1`, the activity change, negative = inhibition entry was “inactive”.

`CN(C(=O)Cc1ccc(Cl)c(Cl)c1)[C@@H]1CCCC[C@H]1N1CCCC1`: the activity change, negative = inhibition result was “inactive”.

With `Cc1nn(-c2ccccc2)c2c1P(=O)(N1CCOCC1)N(C)C(c1ccccc1)=N2` (configuration not stated), the activity change, negative = inhibition result was “inactive”.

Consider `O=P1(Nc2ccc(Br)cn2)COc2ccccc2OC1`, for which the activity change, negative = inhibition entry is “inactive”.

Take `O=P1(Nc2ncccn2)COc2ccccc2OC1`: the activity change, negative = inhibition result was “inactive”.

With `N1=C(c2nnc(-c3nn[nH]n3)nn2)NNN1`, the activity change, negative = inhibition was inactive: 2.18% [at 11.4 µM].

For the compound `CN(N=O)C(=N)N[N+](=O)[O-]`, the activity change, negative = inhibition result is “inactive”.

Turning to `CP(=S)(Nn1cnnc1)Oc1ccccc1` (configuration not stated), the activity change, negative = inhibition result is “inactive”.

As to `O=C(O)[C@@H](O)c1ccc([As](=O)(O)O)cc1`, the activity change, negative = inhibition was inactive: 6.07% [at 11.4 µM].

`CP(=O)(NC(=O)Nc1ccccc1)Oc1ccccc1` (configuration not stated): the activity change, negative = inhibition entry is “inactive”.

As to `O=C(COc1ccccc1)OC1CN2CCC1CC2` (configuration not stated), the activity change, negative = inhibition entry is “inactive”.

Turning to `COP1(=S)c2c(C)nn(CCC#N)c2N=C(c2ccc(F)cc2)N1C` (configuration not stated), the activity change, negative = inhibition entry was “inactive”.

On to `CCOP(C)(=S)SCC(=O)NC(C)C(=O)O` (configuration not stated), for which the activity change, negative = inhibition entry was “inactive”.

In the case of `NC(=O)Nc1cc([As](=O)(O)O)cc(I)c1O`, the activity change, negative = inhibition was inactive: -6.4% [at 11.4 µM].

`O=C(OC1CN2CCC1CC2)C12CC3CC(CC(C3)C1)C2` (configuration not stated): the activity change, negative = inhibition entry is “inactive”.

Regarding `O=[N+]([O-])[O-].[NH4+]`, the activity change, negative = inhibition result was “inactive”.

`Cc1ccc(NP(C)(=O)Oc2ccccc2)c(C)c1` (configuration not stated): the activity change, negative = inhibition result was “inactive”.

As for `[N-]=[N+]=NCC(N)=O`, the activity change, negative = inhibition was inactive: -1.72% [at 11.4 µM].

In the case of `COc1ccccc1OP(C)(=O)Nc1ccc(C)cc1` (configuration not stated), the activity change, negative = inhibition result is “inactive”.

Turning to `O=[As]c1ccc(S(=O)(=O)NCCO)cc1` (configuration not stated), the activity change, negative = inhibition is inactive: 5.46% [at 11.4 µM].

As to `CN(C(=O)Cc1ccc(Cl)c(Cl)c1)[C@H]1CCCC[C@@H]1N1CCCC1`, the activity change, negative = inhibition entry is “inactive”.

On to `COc1ccccc1OP(C)(=O)Nc1ccc(C)c(C)c1` (configuration not stated), for which the activity change, negative = inhibition result is “inactive”.

As for `C(Cc1nn[nH]n1)c1nn[nH]n1`, the activity change, negative = inhibition is inactive: 5.43% [at 11.4 µM].

Turning to `Cc1nc2ccc3ccccc3c2o1.O=[N+]([O-])c1cc([N+](=O)[O-])c(O)c([N+](=O)[O-])c1`, the Potency is active: 20 µM.

Take `[N-]=[N+]=NCC(O)CN=[N+]=[N-]` (configuration not stated): the activity change, negative = inhibition was inactive: 7.1% [at 11.4 µM].

Regarding `O=[N+]([O-])c1ccc(C[As](=O)(O)O)cc1`, the activity change, negative = inhibition was inactive: 2.79% [at 11.4 µM].

On to `CP(=O)(Nc1ccccn1)Oc1ccccc1` (configuration not stated), for which the activity change, negative = inhibition result was “inactive”.

Turning to `NCC[C@@H](N)CSP(=O)(O)O`, the activity change, negative = inhibition was inactive: 2.79% [at 11.4 µM].

Take `Cc1c2non([O-])c-2c(C)[n+](=O)[n+]1[O-]`: the activity change, negative = inhibition result was “inactive”.

Consider `OCCSCCO`, for which the activity change, negative = inhibition result was “inactive”.

Turning to `COc1ccccc1OP(C)(=O)Nc1c(C)n(C)n(-c2ccccc2)c1=O` (configuration not stated), the activity change, negative = inhibition entry is “inactive”.

`CCc1nc2c(n1)c1c(non1O)c1c2no[n+]1[O-]`: the activity change, negative = inhibition result is “inactive”.

As to `CP(=O)(Oc1ccccc1)N1CCOC1=O` (configuration not stated), the activity change, negative = inhibition result is “inactive”.

Consider `N#[O+].[C-]#N.[C-]#N.[C-]#N.[C-]#N.[C-]#N.[Fe+2].[Na+].[Na+]`, for which the Potency is active: 15.8 µM.

`O=C(CO)Nc1ccc([As](=O)(O)O)cc1`: the activity change, negative = inhibition was inactive: 1.47% [at 11.4 µM].

As to `CN(C(=O)Cc1ccccc1)[C@@H]1CC[C@@]2(CCCO2)C[C@H]1N1CCCC1`, the activity change, negative = inhibition entry is “inactive”.

With `C/C1=C2N=C(/C=C3N=C(/C(C)=C4\[N-][C@@](C)([C@H]5N=C1[C@@](C)(CCC(=O)NC[C@H](C)OP(=O)([O-])O[C@@H]1[C@H](O)[C@H](n6cnc7cc(C)c(C)cc76)O[C@@H]1CO)[C@@H]5CC(N)=O)[C@](C)(CC(N)=O)[C@H]4CCC(N)=O)[C@@](C)(CC(N)=O)[C@@H]\3CCC(N)=O)C(C)(C)[C@@H]/2CCC(N)=O.[C-]#N.[Co+3]`, the activity change, negative = inhibition result is “inactive”.

Consider `CN(C)CCOC(=O)C(O)(c1ccccc1)C1CCCCC1` (configuration not stated), for which the activity change, negative = inhibition entry is “inactive”.

In the case of `[N-]=[N+]=Nc1ccc([As](=O)(O)O)cc1`, the activity change, negative = inhibition was inactive: 8.28% [at 11.4 µM].

Regarding `Cc1cc([N+](=O)[O-])cc([N+](=O)[O-])c1O`, the activity change, negative = inhibition result was “inactive”.

As to `O=C(OC1CN2CCC1CC2)c1cccc(Cl)c1` (configuration not stated), the activity change, negative = inhibition entry was “inactive”.

Take `Cc1c([N+](=O)[O-])cccc1[N+](=O)[O-]`: the activity change, negative = inhibition result was “inactive”.

As to `Cc1ccc([N+](=O)[O-])c([N+](=O)[O-])c1`, the activity change, negative = inhibition result is “inactive”.

For `CCOP(C)(=S)SCC(=O)NC(C)(CC)C(=O)O` (configuration not stated), the activity change, negative = inhibition result is “inactive”.

`CCOP(=O)(CC)OCC`: the activity change, negative = inhibition entry is “inactive”.

On to `c1nnnn1CCn1cnnn1`, for which the activity change, negative = inhibition entry is “inactive”.

On to `O=P(Nc1nccs1)(c1ccccc1)c1ccccc1`, for which the activity change, negative = inhibition result was “inactive”.

As to `C[C@@H](O)COc1ccc([As](=O)(O)O)cc1N`, the activity change, negative = inhibition was inactive: 7.02% [at 11.4 µM].

Take `[NH4+].[O-][Cl+3]([O-])([O-])[O-]`: the activity change, negative = inhibition entry is “inactive”.

For `CCN(CCCl)Cc1ccccc1C`, the activity change, negative = inhibition result is “inactive”.

On to `Cc1ccccc1NP(C)(=O)Nc1ccccc1C`, for which the activity change, negative = inhibition entry was “inactive”.

With `NNC(NN)NN.n1nc(-c2nn[nH]n2)n[nH]1`, the activity change, negative = inhibition is inactive: -21.9% [at 11.4 µM].

`CP(=O)(Nc1ccc2c(c1)OCCO2)Oc1ccccc1` (configuration not stated): the activity change, negative = inhibition result is “inactive”.

In the case of `CN1CCC[C@H](OC(=O)C(c2ccccc2)c2ccccc2)C1`, the activity change, negative = inhibition is inactive: 7.61% [at 11.4 µM].

As for `CP(=O)(Nc1ccccc1F)Oc1ccccc1` (configuration not stated), the activity change, negative = inhibition entry was “inactive”.

Regarding `O=P1(Nc2nc3ccc(Cl)cc3s2)COc2ccccc2O1` (configuration not stated), the activity change, negative = inhibition result is “inactive”.

Consider `Cc1cccc([N+](=O)[O-])c1[N+](=O)[O-]`, for which the activity change, negative = inhibition result was “inactive”.

Regarding `CCC(C)(OO)OOC(C)(CC)OO` (configuration not stated), the activity change, negative = inhibition result was “inactive”.

Take `COC(=O)c1cc2c(s1)N=C(c1ccccc1)N(C)P2(=O)N1CCOCC1` (configuration not stated): the activity change, negative = inhibition result is “inactive”.
